The values below are quoted from earlier work in publication PMC7157535.

Amino acid sequences for entries named in this document (tags omitted). Residues count along the entry.
UniProt P04233, 73-296: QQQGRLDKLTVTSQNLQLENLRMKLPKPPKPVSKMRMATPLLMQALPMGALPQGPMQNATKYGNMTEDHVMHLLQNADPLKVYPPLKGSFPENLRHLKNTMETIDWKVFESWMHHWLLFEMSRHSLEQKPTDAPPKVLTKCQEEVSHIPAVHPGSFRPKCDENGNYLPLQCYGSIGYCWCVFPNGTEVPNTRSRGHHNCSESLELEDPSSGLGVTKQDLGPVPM
UniProt P14174, 2-115: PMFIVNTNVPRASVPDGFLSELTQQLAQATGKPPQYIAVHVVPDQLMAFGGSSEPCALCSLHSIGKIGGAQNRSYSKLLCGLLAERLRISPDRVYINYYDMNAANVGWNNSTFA

The series deals with CD74 (Homo sapiens) (UniProt P04233).

As for MIF (from UniProt P14174), the Kd (in general, the concentration at which binding is half-saturated) was 9 nM.
